Data reported in patent US5001160A (priority 1989, dated 1991).

Sequences of proteins named here, by UniProt entry; tags and fusion partners are left off. Residues count along the entry.
UniProt H0W1Z3, 1-590: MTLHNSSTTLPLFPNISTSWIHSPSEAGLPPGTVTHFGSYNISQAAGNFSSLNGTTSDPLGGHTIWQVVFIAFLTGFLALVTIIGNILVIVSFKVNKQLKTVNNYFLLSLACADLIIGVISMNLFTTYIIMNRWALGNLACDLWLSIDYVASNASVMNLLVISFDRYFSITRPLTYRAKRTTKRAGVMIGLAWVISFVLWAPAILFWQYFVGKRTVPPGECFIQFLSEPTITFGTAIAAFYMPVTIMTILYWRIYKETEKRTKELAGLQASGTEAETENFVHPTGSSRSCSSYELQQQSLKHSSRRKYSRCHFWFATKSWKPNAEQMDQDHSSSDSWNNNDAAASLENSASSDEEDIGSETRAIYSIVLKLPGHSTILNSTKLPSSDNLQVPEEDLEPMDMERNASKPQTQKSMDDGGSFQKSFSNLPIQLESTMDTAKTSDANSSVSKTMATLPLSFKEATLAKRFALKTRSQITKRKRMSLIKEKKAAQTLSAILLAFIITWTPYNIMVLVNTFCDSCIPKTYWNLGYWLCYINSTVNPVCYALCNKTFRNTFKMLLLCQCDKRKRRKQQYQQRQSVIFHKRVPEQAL

Target: postsynaptic muscarinic cholinergic receptors (bladder detrusor muscle) (Cavia porcellus, UniProt H0W1Z3)
Conditions: antagonism of carbachol contraction, guinea pig bladder detrusor strips

O=C(CN1CCN(Cc2ccccc2)CC1)C(O)(c1ccccc1)C1CCCCC1 (stereo not shown)
Kb: 20 nM
